In patent US20100158980A1, “DRUG DELIVERY DEVICES FOR DELIVERY OF THERAPEUTIC AGENTS” (priority 2008, published 2010):

Excerpt: The active agent may be any active agent suitable to treat the desired condition. […] Examples include, but are not limited to, acetazolamide, dorzolamide HCl, timolol maleate, and ethacrynic acid sodium salt.

Question: Which solubility class does the source give for “albumin: albumin (approximately 67 kDa) labeled with fluorescein isothiocyanate (BSA-FITC, Fluka), mixed with unlabeled albumin 1:9” here?
Answer: high solubility
